The source of these data is paper PMC5934274 (Journal of medicinal chemistry, 2016).

One may read the IC50 as the concentration that gives 50% inhibition. The low end stands for higher potency, the high end for lower potency. One may read the pIC50 as the IC50 on a negative log10 scale, so that one unit is a factor of ten. A high value points to a small IC50.

This assay has as its target T1, PARP10 (Homo sapiens, UniProt Q53GL7).
T1 sequence (Q53GL7 1-1025): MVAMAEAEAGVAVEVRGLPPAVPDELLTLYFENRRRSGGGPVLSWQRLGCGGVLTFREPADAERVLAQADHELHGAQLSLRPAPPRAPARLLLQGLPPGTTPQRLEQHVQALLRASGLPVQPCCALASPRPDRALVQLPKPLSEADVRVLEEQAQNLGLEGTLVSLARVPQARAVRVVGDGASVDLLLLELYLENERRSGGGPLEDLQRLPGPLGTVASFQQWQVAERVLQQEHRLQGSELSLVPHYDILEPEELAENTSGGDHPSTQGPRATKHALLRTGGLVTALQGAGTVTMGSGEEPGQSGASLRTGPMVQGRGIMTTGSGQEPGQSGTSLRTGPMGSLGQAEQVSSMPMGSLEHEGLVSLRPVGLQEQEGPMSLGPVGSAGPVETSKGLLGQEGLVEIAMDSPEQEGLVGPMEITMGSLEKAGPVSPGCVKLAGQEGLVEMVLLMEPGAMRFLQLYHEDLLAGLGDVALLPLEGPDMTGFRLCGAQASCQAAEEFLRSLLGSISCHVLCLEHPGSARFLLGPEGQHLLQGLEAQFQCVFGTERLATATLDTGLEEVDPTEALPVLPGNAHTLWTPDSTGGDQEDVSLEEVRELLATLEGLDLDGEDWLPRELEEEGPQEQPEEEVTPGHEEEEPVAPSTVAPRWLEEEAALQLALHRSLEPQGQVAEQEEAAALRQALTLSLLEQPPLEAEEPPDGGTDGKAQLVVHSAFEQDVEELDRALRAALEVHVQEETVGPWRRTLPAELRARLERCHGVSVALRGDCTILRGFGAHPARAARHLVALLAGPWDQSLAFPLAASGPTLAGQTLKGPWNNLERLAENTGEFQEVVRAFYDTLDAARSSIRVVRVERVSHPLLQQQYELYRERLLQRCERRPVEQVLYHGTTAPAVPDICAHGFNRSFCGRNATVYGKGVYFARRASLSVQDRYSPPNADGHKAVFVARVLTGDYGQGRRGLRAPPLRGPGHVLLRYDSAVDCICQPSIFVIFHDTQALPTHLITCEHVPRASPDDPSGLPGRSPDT
The assay is described as follows: In vitro ADP-ribosylation assay, PARP10. Particulars: PARP10 FL (full length). The class given is biochemical.

As for `C[C@]1(c2nc3c(C(N)=O)cccc3[nH]2)CCCN1` [Veliparib], the half-maximal inhibitory concentration (IC50) was determined as 1.9 µM and the negative-log IC50 (pIC50) is 5.72±0.15.
